Source: paper PMC5180416 (Journal of the American Chemical Society, 2012)
Values joined by “and” are separate entries in the source; they are usually repeats but may differ in a detail not shown here. Equal entries are not always repeated. Where two headings read alike, the source gives them in different places.

What was measured:
WDR5 = WDR5 (Homo sapiens, UniProt P61964); assay: Fluorescence-polarization; type: binding
[1] = target: MLL1 core complex (MLL1/WDR5/RbBP5/ASH2L) (Homo sapiens, UniProt P61964); assay: In vitro H3K4 histone methyltransferase; type: biochemical
[2] = IC50 ± SD, binding affinity to WDR5, FP-based competitive binding

CC[C@H](NC(=O)[C@H](CCCNC(=N)N)NC(=O)[C@H](C)NC(C)=O)C(N)=O [Compound 3b] was tested, and the IC50 (WDR5) was 30 ± 8 nM, the Ki (WDR5) was 6 ± 2 nM and the IC50 [1] was 1.8 ± 0.2 µM.
CC(=O)N[C@@H](C)C(=O)N[C@@H](CCCNC(=N)N)C(=O)N[C@@H](CO)C(N)=O [Compound 3h] was tested, and the IC50 (WDR5) was 1800 ± 30 nM and the Ki (WDR5) was 400 ± 70 nM.
CCC[C@H](NC(C)=O)C(=O)N[C@@H](CCCNC(=N)N)C(=O)N[C@H](C(N)=O)C(C)C [Compound 4h] was tested, and the Ki (WDR5) was 40 ± 2 nM.
CC(=O)N[C@@H](C)C(=O)N[C@@H](CCCNC(=N)N)C(=O)N[C@@H](CS)C(N)=O [Compound 3d] gave a Ki (WDR5) of 20 ± 3 nM and an IC50 (WDR5; [2]) of 80 ± 10 nM.
For CC(=O)N[C@@H](CC(C)C)C(=O)N[C@@H](CCCNC(=N)N)C(=O)N[C@@H](C)C(N)=O [Compound 1e], the IC50 (WDR5) was 10800 ± 400 nM and the Ki (WDR5) was 2300 ± 300 nM.
With CC(=O)N[C@@H](C)C(=O)N[C@@H](CCCNC(N)=O)C(=O)N[C@@H](C)C(N)=O [Compound 2d] the Ki (WDR5) was over 65000 nM, the IC50 (WDR5; [2]) was over 300000 nM and the IC50 [1] was over 400 µM.
CC(=O)N[C@@H](C)C(=O)N[C@@H](CCCNC(=N)N)C(=O)NCC(N)=O [Compound 3a] showed an IC50 (WDR5) of 10300 ± 1200 nM and a Ki (WDR5) of 2200 ± 300 nM.
Molecule CC(=O)N[C@@H](C)C(=O)N[C@@H](CCCNC(=N)N)C(=O)N[C@@H](CCC(=O)O)C(N)=O [Compound 3j] has an IC50 (WDR5) of over 100000 nM and a Ki (WDR5) of over 20000 nM.
For CC(=O)N[C@H](C(=O)N[C@@H](CCCNC(=N)N)C(=O)N[C@@H](C)C(N)=O)C(C)C [Compound 1c], the IC50 (WDR5) was 240 ± 30 nM, the Ki (WDR5) was 50 ± 5 nM and the IC50 [1] was 12.1 ± 0.6 µM.
With CC(=O)N[C@@H](Cc1ccccc1)C(=O)N[C@@H](CCCNC(=N)N)C(=O)N[C@@H](C)C(N)=O [Compound 1h] the Ki (WDR5) was 700 ± 70 nM, the IC50 (WDR5; [2]) was > 3000 nM and 3100 nM and the IC50 [1] was over 400 µM.
Work on CC(=O)N[C@H](C(=O)N[C@@H](CCCNC(=N)N)C(=O)N[C@@H](C)C(N)=O)[C@@H](C)O [Compound 1j] yielded a Ki (WDR5) of 600 ± 90 nM and an IC50 (WDR5; [2]) of 2900 ± 400 nM.
CC(=O)N[C@@H](C)C(=O)N[C@@H](CCCNC(=N)N)C(=O)N[C@@H](CC(C)C)C(N)=O [Compound 3e] gave an IC50 (WDR5) of 34000 ± 6000 nM and a Ki (WDR5) of 7300 ± 1200 nM.
Work on CC[C@H](NC(C)=O)C(=O)N[C@@H](CCCNC(=N)N)C(=O)N[C@@H](C)C(N)=O [Compound 1b] yielded a Ki (WDR5) of 60 ± 1 nM.
CC(=O)N[C@@H](C)C(=O)N[C@@H](CCCNC(=N)N)C(=O)N[C@H](C(N)=O)C(C)C [Compound 3c] gave an IC50 (WDR5) of 110 ± 20 nM and a Ki (WDR5) of 20 ± 3 nM.
In the case of CC(=O)N[C@@H](CS)C(=O)N[C@@H](CCCNC(=N)N)C(=O)N[C@@H](C)C(N)=O [Compound 1d], the IC50 (WDR5) is reported as 1830 ± 300 nM and the Ki (WDR5; read-out: Ki ± SD, binding affinity to WDR5, FP-based competitive binding) is reported as 400 ± 600 nM.
CC(=O)N[C@@H](CO)C(=O)N[C@@H](CCCNC(=N)N)C(=O)N[C@@H](C)C(N)=O [Compound 1i] was tested, and the IC50 (WDR5) was 2900 ± 610 nM and the Ki (WDR5) was 600 ± 100 nM.
CC(=O)N[C@@H](Cc1c[nH]cn1)C(=O)N[C@@H](CCCNC(=N)N)C(=O)N[C@@H](C)C(N)=O [Compound 1g] was tested, and the IC50 (WDR5) was 1700 ± 300 nM and the Ki (WDR5) was 400 ± 30 nM.
CC(=O)N[C@@H](C)C(=O)N[C@@H](CCCNC(=N)N)C(=O)N[C@@H](Cc1ccccc1)C(N)=O [Compound 3g] was tested, and the Ki (WDR5) was 60000 ± 8000 nM.
CC(=O)NCC(=O)N[C@@H](CCCNC(=N)N)C(=O)N[C@@H](C)C(N)=O [Compound 1a] was tested, and the Ki (WDR5) was 16700 ± 2800 nM, the IC50 (WDR5; [2]) was > 3000 nM and 77400 nM and the IC50 [1] was over 400 µM.
CCC(CC)(NC(C)=O)C(=O)N[C@@H](CCCNC(=N)N)C(=O)N[C@H](C(N)=O)C(C)C [Compound 4f] was tested, and the IC50 (WDR5) was 20 ± 10 nM.
